In one assay the test system is antithrombin/heparin. Briefly: inactivation by antithrombin in the presence of heparin. It is filed as biochemical. The conditions noted are these: thrombin or factor Xa in complex with a2M. The procedure: Varied concentrations of thrombin and factor Xa were titrated against a2M to determine the ratio of proteins that gave optimal incorporation. Thrombin or factor Xa were incubated with a2M for 2 hours at 37° C., Aliquots of the titrated mixtures were incubated with antithrombin in the presence of heparin.

The chains behind the UniProt entries cited, without tags or fusion partners. Residues count along the entry.
UniProt P00742, 41-179 limits assumed: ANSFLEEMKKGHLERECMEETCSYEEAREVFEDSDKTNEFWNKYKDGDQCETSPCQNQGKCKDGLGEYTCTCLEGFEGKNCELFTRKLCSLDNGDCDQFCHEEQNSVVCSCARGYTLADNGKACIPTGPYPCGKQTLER
UniProt P00742, 235-488 limits assumed: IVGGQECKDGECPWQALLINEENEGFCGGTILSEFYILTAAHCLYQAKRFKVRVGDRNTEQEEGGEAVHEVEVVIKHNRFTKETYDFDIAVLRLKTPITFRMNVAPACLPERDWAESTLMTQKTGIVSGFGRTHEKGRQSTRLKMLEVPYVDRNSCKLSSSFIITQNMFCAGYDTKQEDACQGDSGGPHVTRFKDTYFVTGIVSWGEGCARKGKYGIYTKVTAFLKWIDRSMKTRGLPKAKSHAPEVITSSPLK

The next assay has as its system mice. Put plainly: saphenous vein injury bleeding time in mice. Format: in vivo. The conditions noted are these: FIG. 6; mouse, rivaroxaban 160 μg/kg followed by a2M-Xa 2.3 nmol/kg. The procedure: FIG. 6. In normal mice, an injury to the saphenous vein in the leg will stop bleeding in just over 1 minute. Administration of dabigatran to a normal mouse prolongs bleeding such that the same injury requires more than 2 minutes to stop bleeding. Administration of dabigatran followed by administration of a2M-IIa restores the normal bleeding time of a little over 1 minute. Similarly, administration of rivaroxaban to a normal mouse prolongs bleeding such that the same injury requires almost 2 minutes to stop bleeding. Administration of rivaroxaban followed by administration of a2M-Xa restores the normal bleeding time of about 1 minute.
Mice were administered 7 μg/kg dabigatran which was designed to produce a plasma level of 65 ng/mL (140 nM). Dabigatran concentration assumes complete recovery and 35% bound to plasma proteins (Stangier and Clemens. “Pharmacology, pharmacokinetics, and pharmacodynamics of dabigatran etexilate, an oral direct thrombin inhibitor” Clin Appl Thromb Hemost. 15 Suppl 1:9S-16S (2009) doi: 10.1177/1076029609343004). The peak plasma level of dabigatran in healthy human volunteers was 150 ng/mL (van Ryn et al. “Dabigatran etexilate—a novel, reversible, oral direct thrombin inhibitor: interpretation of coagulation assays and reversal of anticoagulant activity” Thromb Haemost. 103:1116-1127 (2010) doi:10.1160/TH09-11-0758). […]

The target in the next assay is a2M-Xa (Homo sapiens, UniProt P00742). Put plainly: substrate cleavage by a2M-Xa (factor Xa caged in alpha-2-macroglobulin). It is filed as biochemical. On the set-up: Factor Xa was purchased from Enzyme Research Labs; host or cells: no expression host: complex formed in vitro from purchased factor Xa and a2M purified from human plasma, then purified on heparin Sepharose and Q-Sepharose. Conditions: FIG. 2; no inhibitor. Here is the method:
Substrate cleavage in the presence of test sample is measured for all four test conditions.
There are any number of substrates for thrombin and factor Xa and other proteases as described herein that can be used in the methods of this invention. In some embodiments, the substrate is a chromogenic substrate, which can be a para-nitroanalide synthetic substrate. […]
0.5 mM of para-nitroanilide synthetic substrate (Pefachrome FXa) was added and the rate of substrate cleavage determined by appearance of yellow color characteristic of the cleaved substrate. […]
The rates of substrate cleavage were converted to concentrations using measured Km and kcat values determined as previously described (Joost et al. “Inhibition of human blood coagulation factor Xa by alpha-2-macroglobulin” Biochemistry 26:5932-5937 (1987) doi: 10.1021/bi00392a053) (FIGS. 1-5).

With “a2M-Xa: factor Xa caged in alpha-2-macroglobulin”, the inactivation by antithrombin/heparin result with antithrombin/heparin is recorded as “protected from inactivation”. For the same substance, in the assay on mice, the “bleeding time after reversal” value is “about 1 minute”. Further, the “activity of the purified complex (cleavage of synthetic substrate)” value with a2M-Xa is recorded as “active”.

Values taken from patent US9989532B2, “Methods and compositions for detecting coagulation inhibitors” (The University of North Carolina at Chapel Hill, priority 2013, dated 2018).
